Measured values as given in publication PMC2919393.

Tests used:
[1] = tested on: Cc1cc(=O)oc2cc(NC(=O)[C@@H](N)CCC(=O)O)ccc12; experiment: purified protein; conditions: no added CaCl2 (the +1.2 mM CaCl2 row is separate in the table), 0.02 M Tris-HCl pH 7.4, 37 °C
[2] = tested on: Cc1cc(=O)oc2cc(NC(=O)[C@@H](N)CC(=O)O)ccc12; experiment: purified protein; conditions: no added CaCl2 (the +1.2 mM CaCl2 row is separate in the table), 0.02 M Tris-HCl pH 7.4, 37 °C

rhiminopeptidase A (Bitis rhinoceros)
Km [1]: 2.235 ± 0.089 mM | kcat [1]: 25.2 s⁻¹ | Km [2]: 4.119 ± 0.135 mM | kcat [2]: 5.3 s⁻¹
